Yeast mating assay B: variants of the scFv Ab-14

The target is the same throughout: PDVDLGDISGINAS, from the HR2 region of SARS-CoV-2 spike.

Parent scFv Ab-14: VH joined to VL by the linker GGGGSGGGGSGGGGS. Changes lie in the light chain CDRs alone.
VH: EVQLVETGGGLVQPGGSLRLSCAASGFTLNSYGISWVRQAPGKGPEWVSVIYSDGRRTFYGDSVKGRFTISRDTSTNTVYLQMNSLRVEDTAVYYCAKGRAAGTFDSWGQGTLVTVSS
VL: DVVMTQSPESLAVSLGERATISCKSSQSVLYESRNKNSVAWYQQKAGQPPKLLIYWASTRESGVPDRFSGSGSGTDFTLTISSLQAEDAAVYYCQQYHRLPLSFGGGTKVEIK

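Phage display of a naive human antibody library on the peptide gave the parent. This is the validation round: designs drawn from the data on random variants, tested in the same kind of assay. Group labels follow the data file (Ctrl: baseline library sampled from a position-specific scoring matrix, with some repeated check sequences; Rand: our label for a block that the file lists under HC and that is probably the random mutants of the ten best first-round binders; GP: Gaussian process model; HC: hill climbing; Gen: genetic algorithm; Gibbs: Gibbs sampling; a sequence that several methods proposed may carry one label only). The assay is AlphaSeq: two haploid yeast populations carry antibody and antigen on their surface. After mating in shaken culture at 30 °C for 16 h, diploids were selected and their barcode pairs sequenced. The ratio of observed to expected reads was calibrated, replicate by replicate, on BCL2-family standards whose Kd was known from biolayer interferometry. The assay was run in six technical replicates.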

Each variant is given by its three light chain CDRs, as the data file delimits them; those of the parent are KSSQSVLYESRNKNSVA, WASTRES, QQYHRLPLS.
This list holds designs with at most six substitutions.
Each Kd is an estimate from the mating assay, the geometric mean of the replicates in which the pair was seen; lower is stronger.
"nd" marks a missing value. The strain was present, yet no cells mated with the target were sequenced in any replicate, which points to weak or no binding.
The parent sequence was in this pool as ten entries: three were never detected, three once, and four in most replicates, with averages from 2.2 nM to 240 nM.
Nonspecific signal, from three strains lacking the peptide, appeared in 4% of pairings of all light chain designs, centred on 430 nM (5% of these signals below 38 nM); values are not corrected for it.
A sequence measured in both rounds can read differently, since the two assays cover different ranges.
The authors averaged sequences with at least three values out of six and counted those with two or fewer as poor binders.

KLSQSVLYEDRNKNSVA | NASQRMS | QQYHRLPLS [GP_Gen]: 730 pM (6 of 6 replicates).
KLLQSVLYESRNKDSVA | WAMTRES | QQYHRLPLS [Ctrl]: nd (0 of 6 replicates).
KLPQSVLYESRNKNAVA | NASTRES | QQYHRLPLS [GP_Gen]: 290 pM (6 of 6 replicates).
KSSQSQGYEHRNKNNVA | WASTRES | QQYHRLPCS [Ctrl]: nd (0 of 6 replicates).
KSSQSVLEESRNKNSVA | FASTRES | QQYHRLPLS [Ctrl]: 25 nM (6 of 6 replicates).
KSSQSVLYESRNKNSVA | WASCRES | QQYHRLPLS [Ctrl]: nd (0 of 6 replicates).
KLHQSVLYESRHKNNVA | NASQRES | QQYHRLPLS [GP_Gibbs]: 48 nM (6 of 6 replicates).
KSSWSVLYESRNKNSVA | WASNRES | QQYHRLPLS [Ctrl]: nd (0 of 6 replicates).
KVSQSVGYGSRNKWSVA | EASTRES | QQYHRLPLS [GP_Gibbs]: 8.8 nM (6 of 6 replicates).
KLEQSVEMESRWKNSVA | HASTRES | QQYHRLPLS [GP_Gibbs]: 9.5 nM (6 of 6 replicates).
KSSQSVLYESSNKNSVA | WASTRES | QQYQRLPLS [Ctrl]: 89 nM (6 of 6 replicates).
KVMQSWLYESRNKNSVA | NASTRES | QQYHRLPLS [GP_Gen]: 740 pM (6 of 6 replicates).
KNSQSVLYESRNHNSVA | NASTRES | QQYHRLPLS [Ctrl]: 1.5 nM (6 of 6 replicates).
KISPSVVYEERNSNSVA | WASTQES | QQYHRLPLS [Ctrl]: 130 nM (1 of 6 replicates).
KSSQSVWMESRNKNNVA | HASLRES | QQYHRLPLS [Ctrl]: 5.9 nM (6 of 6 replicates).
KSSQSVLYESRNKNSVA | WASTREW | QQYSRLPLS [Ctrl]: nd (0 of 6 replicates).
KLSQSVLYESRNKNSVA | NASTRMA | QQYHRLPLS [GP_Gen]: 340 pM (6 of 6 replicates).
KSSQSVMYESNNKNAVA | WAGTRES | QQYHRLPLS [Ctrl]: 46 nM (6 of 6 replicates).
KSSQSVLYESRNKNSVA | EASTRES | QAYSRKPLS [Ctrl]: 500 nM (1 of 6 replicates).
KSEQSVLYESRNANSVA | WASTRES | QQYHRLPLS [Ctrl]: 82 nM (5 of 6 replicates).
KSSQSVLDESRNKNSVA | WASTRES | QQKHRLPLS [Ctrl]: 2.5 nM (4 of 6 replicates).
KSSQSVLYESRNKNSVA | WASTRES | QQYNRLPLS [Ctrl]: 44 nM (4 of 6 replicates).
KVSQSVLQESRMKNSVA | DASTRCS | QQYHRLPLE [GP_HC]: 730 pM (6 of 6 replicates).
KSSQSWLYESRNKNNVA | GASERES | QQYHRLPLS [GP_HC]: 260 pM (6 of 6 replicates).
KLSQSDLYESRNKNNVA | EASTRCS | QQYHRLPLS [GP_Gen]: 500 pM (6 of 6 replicates).
KSSGSVLFESRNKNSVA | DASTRSS | QQYHRLPLS [GP_HC]: 2.9 nM (6 of 6 replicates).
KLQQSSLYESRNKNSVA | NASTRES | QQYHRLPLS [GP_Gen]: 430 pM (6 of 6 replicates).
KLSGSVLYESRNKNSVA | EASTREV | QQYHRLPLS [GP_Gen]: 660 pM (6 of 6 replicates).
KSGQEVLYQSRNKNSVA | GASTRES | QQYHRLPLS [GP_HC]: 1.6 nM (6 of 6 replicates).
KHSESVLYESRNKNSVA | GASTRES | QQYHRLPLS [Ctrl]: 1.3 nM (6 of 6 replicates).
KSSQSVLPESRNKNSVA | QASTRES | QQYHKLPLS [Ctrl]: 10 nM (6 of 6 replicates).
KSSIGWLEESRNKNSVA | EASTRES | QQYHRLPLS [GP_HC]: 580 pM (6 of 6 replicates).
KSDQSVLYLSRNKNSVA | NASTRED | QQYHRLPLS [Rand]: 4.0 nM (6 of 6 replicates).
KSSQPVLYEDRFKNSVA | WASTRES | QSYFRLPLS [Ctrl]: 640 nM (3 of 6 replicates).
KLSQSWLYESRNKNNVA | NASTRES | QQYHRLPLS [GP_Gen]: 360 pM (6 of 6 replicates).
KSSQSDLYESRNSNSVA | HASTREA | QQYHRLPLS [Ctrl]: 4.0 nM (6 of 6 replicates).
KISSSVLYETRFKNSVA | WASTRES | QRYHRLPLS [Ctrl]: 81 nM (1 of 6 replicates).
KSSQSVLQESRNKNSVA | WASTRES | QIYHRLPLS [Ctrl]: 7.8 nM (6 of 6 replicates).
KLQQSQLYESRNKNSVA | DASTRLS | QQYHRLPLS [GP_Gen]: 600 pM (6 of 6 replicates).
KSSQGVLYESRNKNSVA | WASTRES | QQYHRLPLS [Ctrl]: 74 nM (5 of 6 replicates).
HSSESVLYESRNKNSVA | NASTRES | QQYHRLPLQ [GP_HC]: 82 nM (6 of 6 replicates).
KLSMSYLYESRNKNSVA | NASTRES | QQYHRLPLS [GP_Gen]: 870 pM (6 of 6 replicates).
KMSQSVLMESRNKNSVA | GASTRES | QQYHRLPLS [Ctrl]: 650 pM (6 of 6 replicates).
KLRQSTYYESRNQNSVA | WASTRES | QQYHRLPLS [GP_HC]: 1.2 µM (4 of 6 replicates).
KWSQGVMGESRNKNSVA | NASTRES | QQYHRLPLS [GP_Gibbs]: 1.9 nM (6 of 6 replicates).
KLRQSTLYESRNKNSVA | QASTRES | QQYHRLPLK [GP_HC]: 1.2 nM (6 of 6 replicates).
KSSISYLEESRNKNSVA | EASTREM | QQYHRLPLS [GP_HC]: 1.8 nM (6 of 6 replicates).
KVSQSDLYESRNKNAVA | GASTRES | QQYHRLPLS [GP_HC]: 530 pM (6 of 6 replicates).
HSSGSVLYESTNKNSVA | WASTRES | QQYHREPLS [Ctrl]: 150 nM (1 of 6 replicates).

4 of these entries, quoted again:

CDR-L1	CDR-L2	CDR-L3	group	Kd	detected
KSSQSVLYESRNKNSVA	WASCRES	QQYHRLPLS	Ctrl	nd	0/6
KLPQSVLYESRNKNAVA	NASTRES	QQYHRLPLS	GP_Gen	290 pM	6/6
KLHQSVLYESRHKNNVA	NASQRES	QQYHRLPLS	GP_Gibbs	48 nM	6/6
KLSMSYLYESRNKNSVA	NASTRES	QQYHRLPLS	GP_Gen	870 pM	6/6

Data: MIT Lincoln Laboratory AlphaSeq set, Li et al. 2023, doi:10.1038/s41467-023-39022-2, as distributed in FLAb.